Drawing on patent US11788086B2, “Antitumor compounds and tumor diagnosis” (CBMED GMBH CENTER FOR BIOMARKER RESEARCH IN MEDICINE, priority 2016, dated 2023), this text covers mTOR protein expression and eIF4G protein expression for one substance.

Assay [1] relates to colon cancer PDX models. Nature of the assay: Protein expression in colon cancer patients derived xenograft (PDX) models under chemotherapeutic treatment. Type of assay: in vivo, mice. The settings on record: colon primary carcinoma (CPC) PDX models, vs untreated control; not statistically significant. As to the method: (§1) Protein expression was analyzed in NP-40 tissue lysates. Therefore normalized protein amounts were loaded onto 8% or 12.5% polyacrylamide gels in consideration of the molecular mass of the protein of interest. Electrophoresis was performed for 1.5 h at 120 V in SDS Running Buffer with the Mini-vertical electrophoresis unit (Amersham Biosciences). Then separated proteins were transferred to PVDF-membranes (Immobilin-P Transfer Membran; Millipore) using a Semi Dry Blotting Unit (JH BioInnovations) at 160 mA for 1.5 hours. […] Immunoblots were evaluated semi-quantitative using ImageJ (Schneider C A, et al. Nat Meth. 9(2012):671-5) software for densitometric analyses. Relative densities were then calculated by normalizing density values for each protein to the loading control (Actin).
(§2) Samples of patients suffering from colon cancer or GBMs were transplanted into 3 to 6 immunodeficient NOD/SCID mice. The tumor growth was monitored in a daily rhythm. […] During chemosensitivity testing the tumor volume was measured regularly and used to generate growth curves. After a time period of 30-40 days the tumors were excised and analyzed by Immunoblot and Real-Time-PCR. […] Tumor volume of treatment in comparison to control (T/C) was calculated in percent. […]

Assay [2] has as its system rectum cancer PDX models. Nature of the assay: Protein expression in rectum cancer PDX models under chemotherapeutic treatment. Type of assay: in vivo, mice. The settings on record: rectum primary carcinoma (RPC) PDX; not statistically significant. As to the method: as §1, §2

Consider “Cetuximab: Epidermal growth factor receptor inhibitor”, for which the mTOR protein expression result in assay [1] is recorded as “trend to be upregulated”. Moreover, the eIF4G protein expression entry in assay [2] was “increased”.
